# According to patent US20130210057A1, “USE OF LABEL-FREE BIOSENSORS TO UNDERSTAND AND IDENTIFY TREATMENT FOR CANCER” (CORNING INCORPORATED, priority 2012, published 2013):
# Assays:
# HCT116 parental cells = assay: cAMP-Glo assay; format: cell-based, human; details: 15 minutes incubation
# Experimental: (§1) HCT116 parental cells or HCT116 PTEN null cells (reference cell lines) were seeded at a density of 15000 cells/well in 384-well white wall, clear bottom, and cell culture treated plates (BD Bioscience, Franklin Lakes, N.J., Cat#354660). Cells were cultured in the McCoy's 5a complete growth medium overnight. The next day cAMP-Glo assay was performed according to manufacturer's instruction (Promega, Cat# V1502). Briefly, cell culture medium was removed by flipping the plate. 7.5 μL of each compound (10 μM in induction buffer) (Cat#3565) (Corning Inc., NY) was added to each well by liquid handler robot (CyBio) for 15 minutes incubation before additions of lysis buffer, PKA kinase assay buffer, and substrate. Luminescence was measured using Tecan Salim II plate reader.
# (§2) To screen endogenous receptors and their coupled signaling pathways, we first assembled a GPCR agonist focused library (Table 1). The library consists of 120 GPCR agonists covering over 150 known GPCRs, based on their known pharmacology including polypharmacology. For small molecule chemical agonists, the dose used was 10 micromolar. For peptide agonists, the dose used was 1 micromolar. For lipid agonists, the dose used was also 1 micromolar. For both peptides and lipids, these agonists were suspended in a solution containing 0.05% bovine […] to increase their stability. […]
# HCT116 PTEN null cells = assay: cAMP-Glo assay; format: cell-based, human; details: 15 minutes incubation
# Experimental: as §1, §2
substance,measurement,setting,value
"Calcitonin gene-related peptide (ACDTATCVTHRLAGLLSRSGGVVKNNFVPTNVGSKAF; Calcitonin gene-related peptide 1; UniProt P06881 83-119, looked up) [CGRP]",cAMP accumulation (normalized to forskolin-induced cAMP increase),HCT116 parental cells,detectable cAMP accumulation
same,cAMP accumulation (normalized to forskolin-induced cAMP increase),HCT116 PTEN null cells,detectable cAMP accumulation
